# Results from PubChem BioAssay AID588692 (Broad Institute, 2011).
# The list shows a part of the results, in another mix than the full data. Calls of active or inactive are those of the source.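 Rule for the calls: active = mean luciferase reporter signal, scaled so untreated is 0 and the glycosylation-blocking control 100, at or above a set limit in every replicate; inconclusive = mean reaches the limit but not every replicate does; inactive = mean below the limit.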
# Assay: D54 reporter luminescence gain compounds – D54 ERlucT cells, set 2, N-linked glycosylation inhibitor project, primary screen (AID 588692);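 note: luciferase carries N-glycosylation sites so blocking glycosylation raises the light; 0% = median of neutral control wells and 100% = median of 100 nM tunicamycin wells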
# Conditions: D54 ERlucT glycosylation luciferase reporter, 24 h; at 12.5 µM; stronger effect = higher value; percent of 100 nM tunicamycin response
row,Compound,reporter increase
1,CCC(=O)N(c1ccccc1)C1(COC)CCN(CCn2nnn(CC)c2=O)CC1,inactive: -0.277%
2,CCC(=O)N(c1ccccc1)C1(COC)CCN(CCc2cccs2)CC1,inactive: -7.23%
